Data on 14 substances can be found in patent publication US10357573B2, “Block copolymer conjugate of physiologically active substance” (Nippon Kayaku Kabushiki Kaisha, priority 2015, dated 2019).

The nature of data set [1]: Volume average particle diameter by dynamic light scattering. It counts as physicochemical. On the procedure:
Measurement of the volume average particle diameters of the physiologically active substance-conjugated block copolymers of Examples and Comparative Examples was carried out using a ZetaPotential/Particlesizer NICOMP 380 ZLS (device A; temperature: 25° C.) manufactured by Particle Sizing Systems, LLC, or a particle size zeta potential analyzer, ZETASIZER NANO ZS (device B; measurement temperature: 25° C., analysis model: General Purpose (normal resolution), material RI: 1.59) manufactured by Malvern Instruments, Ltd. Regarding the volume average particle diameter measurement sample, a solution obtained by adding ultrapure water to a physiologically active substance-conjugated block copolymer to obtain a concentration of 1 mg/mL or 5 mg/mL, dissolving the block copolymer by irradiating the mixture with ultrasonic waves for 10 minutes under ice cooling, and then filtering the solution through a 0.2-μm membrane filter, was used.

The conditions of data set [2]: for Number of platelets: 75 mg/kg as converted to Ganetespib, iv once, 3rd day after administration; for prolonged hematotoxicity: 75 mg/kg, 3 days after administration. On the procedure:
As a control group, a 5% glucose injection solution was intravenously administered once through the caudal vein.
About 3 μL of an EDTA-2K solution had been added in advance to the syringe, and this solution was sufficiently mixed with the blood thus collected. The resultant solutions were used as analysis samples. The blood samples were subjected to a blood cell analysis using a blood cell analysis apparatus XT-2000iV (Sysmex Corp.).

Data set [3] is described as follows: Light scattering intensity of 1 mg/mL aqueous solution, relative to toluene. It counts as physicochemical. As to conditions: for light scattering intensity of a 1 mg/mL aqueous solution: 1 mg/mL in ultrapure water, 25° C., wavelength 632.8 nm; for relative ratio between the light scattering intensity and the light scattering intensity of toluene: 1 mg/mL aqueous solution vs standard toluene solution under the same conditions. On the procedure: Regarding the measurement sample for the scattering intensity measurement, a solution obtained by adding ultrapure water to a physiologically active substance-conjugated block copolymer to obtain a concentration of 1 mg/mL, dissolving the block copolymer by irradiating the mixture with ultrasonic waves for 10 minutes under ice cooling, and then filtering the solution through a 0.2-μm membrane filter, was used.
Toluene (manufactured by Junsei Chemical Co., Ltd., special grade) that was used for the measurement of the light scattering intensity, was used after being filtered three times through a 0.2-μm membrane filter.

Data set [4] relates to human pancreatic cancer BxPC3. As to conditions: 5 mg/kg as converted to BODIPY, mixture iv once, one hour after administration. The text has this:
(§1) A tumor mass of human pancreatic cancer BxPC3 that had been subcultured by subcutaneous transplantation in a BALB/c nude mouse was cut into a block having a size of about 3 mm on each side, and this block was subcutaneously transplanted on the dorsal side of a nude mouse using a trocar.

The conditions of data set [5]: 5 mg/kg as converted to BODIPY, mixture iv once, one hour after administration.
Text: as §1

Data set [6] in a line: Test Example C-1 intrarenal distribution test. It counts as in vivo, nude mouse. As to conditions: 5 mg/kg as converted to 2-(2-aminoethoxy)-9-(diethylamino)-5H-benzo[a]phenoxazin-5-one, iv once, one hour after administration. From the text:
(§2) A tumor mass of human pancreatic cancer BxPC3 that had been subcultured by subcutaneous transplantation in a BALB/c nude mouse was cut into a block having a size of about 3 mm on each side, and this block was subcutaneously transplanted on the dorsal side of a nude mouse using a trocar. […] One hour after the administration, blood was removed from the mouse under isoflurane anesthesia, frozen embedded slices of the removed tumor and the kidneys were produced, and fluorescence was observed.

Data set [7] concerns human pancreatic cancer BxPC3. Nature of the data set: Test Example C-1 intratumor distribution test. The class given is in vivo, nude mouse. As to conditions: 5 mg/kg as converted to 2-(2-aminoethoxy)-9-(diethylamino)-5H-benzo[a]phenoxazin-5-one, iv once, one hour after administration.
Text: as §2

Several values for one entry are separate records, joined by “and”; a condition that tells them apart may be missing. Equal entries are not always repeated. Where two headings read alike, the source gives them in different places.

On to “4-isopropyl-6-(4-(1-methyl-1H-indol-5-yl)-5-methylene-4,5-dihydro-1H-1,2,4-triazol-3-yl)benzene-1,3-diol Conjugate of polyethylene glycol (2 Kilodaltons)-polyglutamic Acid (6 Polymer) Block Copolymer [Example B-3]”, for which the “volume average particle diameter” value in data set [1] (device A, 5 mg/mL) is 8 nm and 11 nm.

With “4-isopropyl-6-(4-(1-methyl-1H-indol-5-yl)-5-methylene-4,5-dihydro-1H-1,2,4-triazol-3-yl)benzene-1,3-diol Conjugate of polyethylene glycol (2 Kilodaltons)-polyglutamic Acid (7.9 Polymer) Block Copolymer [Example B-1]”, the Number of platelets in data set [2] is listed as 54.6 ± 6.6 ×10^4/μL. Moreover, in data set [3], the “light scattering intensity of a 1 mg/mL aqueous solution” value is listed as 83,228 cps. In addition, in data set [1] (device A, 5 mg/mL), the “volume average particle diameter” value was 11 nm.

As for “4-isopropyl-6-(4-(1-methyl-1H-indol-5-yl)-5-methylene-4,5-dihydro-1H-1,2,4-triazol-3-yl)benzene-1,3-diol Conjugate of polyethylene glycol (2 Kilodaltons)-polyglutamic Acid (12 Polymer) Block Copolymer [Example B-5]”, in data set [3], the “relative ratio between the light scattering intensity and the light scattering intensity of toluene” value was 6.8 times and 11.9 times; the “light scattering intensity of a 1 mg/mL aqueous solution” value is given as 50,425 cps. Further, the “volume average particle diameter” value in data set [1] (device B, 5 mg/mL) came out at 14 nm.

Consider “4-isopropyl-6-(4-(1-methyl-1H-indol-5-yl)-5-methylene-4,5-dihydro-1H-1,2,4-triazol-3-yl)benzene-1,3-diol Conjugate of polyethylene glycol (5 Kilodaltons)-polyglutamic Acid (10 Polymer) Block Copolymer [Example B-6]”, for which, in data set [3], the “light scattering intensity of a 1 mg/mL aqueous solution” value is 88,115 cps. Also, the “volume average particle diameter” value in data set [1] (device A, 5 mg/mL) amounted to 12 nm.

Regarding “4-isopropyl-6-(4-(1-methyl-1H-indol-5-yl)-5-methylene-4,5-dihydro-1H-1,2,4-triazol-3-yl)benzene-1,3-diol Conjugate of polyethylene glycol (12 Kilodaltons)-polyglutamic Acid (25 Polymer) Block Copolymer [Comparative Example B-1, reference compound]”, in data set [2], the Number of platelets is reported as 9.8 ± 3.5 ×10^4/μL and the “prolonged hematotoxicity” value was “prolonged hematotoxicity was recognized”. Also, the “light scattering intensity of a 1 mg/mL aqueous solution” value in data set [3] is given as 294,722 cps. The “volume average particle diameter” value in data set [1] (device A, 1 mg/mL) is 25 nm.

On to “4-isopropyl-6-(4-(1-methyl-1H-indol-5-yl)-5-methylene-4,5-dihydro-1H-1,2,4-triazol-3-yl)benzene-1,3-diol and BODIPY-FL Conjugate of polyethylene glycol (2 Kilodaltons)-polyglutamic Acid (7.9 Polymer) Block Copolymer [Example B-2]”, for which the “prolonged hematotoxicity” value in data set [2] is “prolonged hematotoxicity occurred to a low extent”. For the same substance, the “tissue distribution in tumor slices (fluorescence)” value (from here on “tissue distribution in tumor slices”) in data set [4] is “accumulated in the tumor tissue and penetrated into deep parts of the tumor tissue”. For the same substance, the “tissue distribution in kidney slices (fluorescence)” value in data set [5] was “fluorescence was observed in the blood vessels and in the renal tubules”.

Take “4-isopropyl-6-(4-(1-methyl-1H-indol-5-yl)-5-methylene-4,5-dihydro-1H-1,2,4-triazol-3-yl)benzene-1,3-diol and BODIPY-TR Conjugate of polyethylene glycol (12 Kilodaltons)-polyglutamic Acid (25 Polymer) Block Copolymer [Comparative Example B-2, reference compound]”: the “tissue distribution in tumor slices” value in data set [4] was “did not deliver the drug to the whole area of the tumor tissue”. Also, the “tissue distribution in kidney slices (fluorescence)” value in data set [5] was “fluorescence was not recognized in areas other than in the blood vessels”.

On to “Cabazitaxel (CBZ) Conjugate of polyethylene glycol (2 Kilodaltons)-α,β-polyaspartic Acid (12.5 Polymer) Block Copolymer [Example C-4]”, for which, in data set [3], the “relative ratio between the light scattering intensity and the light scattering intensity of toluene” value amounted to 24.7 times; the “light scattering intensity of a 1 mg/mL aqueous solution” value is given as 176,886 cps. In addition, the “volume average particle diameter” value in data set [1] (device A, 1 mg/mL) was found to be 12 nm.

Consider “Cabazitaxel (CBZ) Conjugate of polyethylene glycol (5 Kilodaltons)-α-polyaspartic Acid (20.0 Polymer) Block Copolymer [Example C-2]”, for which, in data set [3], the “relative ratio between the light scattering intensity and the light scattering intensity of toluene” value is recorded as 2.5 times; the “light scattering intensity of a 1 mg/mL aqueous solution” value is 10,382 cps. The “volume average particle diameter” value in data set [1] (device B, 1 mg/mL) amounted to 10 nm.

For “Cabazitaxel (CBZ) Conjugate of polyethylene glycol (12 Kilodaltons)-α,β-polyaspartic Acid (23.8 Polymer) Block Copolymer [Comparative Example C-1, reference compound]”, in data set [3], the “relative ratio between the light scattering intensity and the light scattering intensity of toluene” value amounted to 5.7 times; the “light scattering intensity of a 1 mg/mL aqueous solution” value is recorded as 24,804 cps. Moreover, the “volume average particle diameter” value in data set [1] (device A, 1 mg/mL) worked out at 22 nm.

As for “Cabazitaxel (CBZ) and 2-(2-aminoethoxy)-9-(diethylamino)-5H-benzo[a]phenoxazin-5-one Conjugate of polyethylene glycol (12 Kilodaltons)-α,β-polyaspartic Acid (23.8 Polymer) Block Copolymer [Comparative Example C-2]”, in data set [3], the “relative ratio between the light scattering intensity and the light scattering intensity of toluene” value was “twice or more”. Moreover, the “tissue distribution in kidney slices (fluorescence)” value in data set [6] was “fluorescence was not recognized in areas other than the blood vessels”. Besides, the “tissue distribution in tumor slices” value in data set [7] was “migration and accumulation in the tumor tissue was low”.

As for “Cabazitaxel (CBZ) and n-butylamine Conjugate of polyethylene glycol (2 Kilodaltons)-α,β-polyaspartic Acid (12.5 Polymer) Block Copolymer [Example C-1]”, in data set [3], the “relative ratio between the light scattering intensity and the light scattering intensity of toluene” value is on record as 3.0 times; the “light scattering intensity of a 1 mg/mL aqueous solution” value was 13,018 cps. In addition, the “volume average particle diameter” value in data set [1] (device A, 1 mg/mL) is recorded as 6.3 nm.

Turning to “Cabazitaxel (CBZ)/n-butylamine/2-(2-aminoethoxy)-9-(diethylamino)-5H-benzo[a]phenoxazin-5-one Conjugate of polyethylene glycol (2 Kilodaltons)-α,β-polyaspartic Acid (12.5 Polymer) Block Copolymer [Example C-3]”, the “tissue distribution in kidney slices (fluorescence)” value in data set [6] is listed as “fluorescence was observed in the renal tubules”. In addition, the “tissue distribution in tumor slices” value in data set [7] was “capable of penetrating into deep parts of the tumor tissue”.

As to “docetaxel (DTX) and 4-phenylbutylamine Conjugate of polyethylene glycol (2 kilodaltons)-α,β-polyaspartic Acid (12.5 Polymer) Block Copolymer [Example C-5]”, in data set [3], the “relative ratio between the light scattering intensity and the light scattering intensity of toluene” value stood at 22.7 times; the “light scattering intensity of a 1 mg/mL aqueous solution” value was 162,126 cps.
